Consider one compound from patent publication US20060189551A1 (priority 2004, published 2006).

The subject of test [1] is aspartokinase self-interaction. The test is described as follows: Yeast two-hybrid assay of aspartokinase self-interaction (AK-AK), lacZ reporter. Type of test: cell-based, S. cerevisiae. Conditions: two-hybrid strain PJ69-4A, 10 μg of FK506/mL.
Test [2] relates to hom6Δ mutant strain MAY308. Briefly: FK506 sensitivity of hom6Δ mutant: paper disk diffusion on YPD, liquid culture growth (OD600) and microscopy. It is filed as cell-based, S. cerevisiae. As for the experimental part:
Approximately 10^7 cells from hom6Δ mutant strain MAY308 were plated on solid YPD medium and exposed to 250 μg of FK506 diffusing form a paper disk. A control paper disk containing only the FK506 solvent (90% EtOH plus 10% Tween 20) was included. The plate was incubated at 30° C. for 2 days and photographed. As control, the same assay was conducted with isogenic wild-type strain BY4742.
FIG. 7C. hom6Δ cells from the FK506-exposed culture described for FIG. 7B were photographed using differential interference contrast microscopy after 22 hours of incubation with drug.
FK506 mimics the lethal effect of an fpr1Δ mutation in a homoserine dehydrogenase-deficient mutant. […] (FIGS. 7A, 7B, and 7C).

Consider `C=CC[C@@H]1/C=C(\C)C[C@H](C)C[C@H](OC)[C@H]2O[C@@](O)(C(=O)C(=O)N3CCCC[C@H]3C(=O)O[C@H](/C(C)=C/[C@@H]3CC[C@@H](O)[C@H](OC)C3)[C@H](C)[C@@H](O)CC1=O)[C@H](C)C[C@@H]2OC` (relative stereo) [FK506, [3S-[3R*[E(1S*,3S*,4S*)],4S*,5R*,8S*,9E,12R*,14R*,15S*,16R*,18S*,19S*,26aR*]]-5,6,8,11,12,13,14,15,16,17,18,19,24,25,26,26a-hexadecahydro-5,19-dihydroxy-3-[2-(4-hydroxy-3-methoxycyclohexyl)-1-methylethenyl]-14,16-dimethoxy-4,10,12,18-tetramethyl-8-(2-propenyl)-15,19-epoxy-3H-pyrido[2,1-c][1,4]oxaazacyclotricosine-1,7,20,21(4H,23H)-tetrone], for which, in test [1], the “aspartokinase self-interaction (wild-type and mutant) in the presence of FK506” value was “detected in the presence of FK506”. Besides, the “cell morphology of hom6Δ mutant cells exposed to FK506” value in test [2] (10 μg of FK506/mL, 22 hours, differential interference contrast microscopy) is “abnormal morphologies, indicative of a cytokinesis defect”. Also, the “sensitivity of hom6Δ mutant to FK506 (growth)” value in test [2] (250 μg FK506 on paper disk on YPD, 30° C., 2 days, 10 μg of FK506/mL in liquid YPD, wild-type BY4742 as control) is “hom6Δ mutation confers sensitivity to FK506”.
